Source: patent US10800749B2, “Centrally active and orally bioavailable antidotes for organophosphate exposure and methods for making and using them” (dated 2020)

System: VX exposed mice
Assay: Antidotal efficacy of oximes in VX-exposed mice (protective index)

With 2-pyridinealdoxime methiodide as the substance, how does the Protective index (VX, oxime p.o. 15 min before OP, atropine i.m. 1 min after OP) read?
Its Protective index is 1.1.

With “N-(2-(4-Azatricyclo[4.3.1.13′8]undecan-4-yl)ethyl)-2-(hydroxyimino)acetamide” as the substance, how does the Protective index (VX exposed mouse, in vivo therapeutic efficacy) read?
The Protective index was 10.8 (range is 9.1 to 12.7).
